From patent publication US20140086975A1, “HYDROGEL FORMULATION FOR DERMAL AND OCULAR DELIVERY” (published 2014)

System: NM exposed mouse skin
Test: Permeability of molecular markers through NM exposed skin, Franz diffusion cell

| Substance | Permeability coefficient (24 h after NM exposure) | Permeability coefficient (72 h after NM exposure) | Permeability coefficient (168 h after NM exposure) | Permeability coefficient (Control (No NM exposure)) |
| --- | --- | --- | --- | --- |
| 3[H] mannitol | 96.36 ± 13.68 (cm · h^−1) × 10^−6 | 1091 ± 216 (cm · h^−1) × 10^−6 | 157.7 ± 18.6 (cm · h^−1) × 10^−6 | 27.45 ± 2.47 (cm · h^−1) × 10^−6 |
| Rhodamine 123 | 889.7 ± 124.4 (cm · h^−1) × 10^−6 | 477.1 ± 14.14 (cm · h^−1) × 10^−6 | 692.2 ± 18.32 (cm · h^−1) × 10^−6 | 161.5 ± 75.58 (cm · h^−1) × 10^−6 |
